The values below are quoted from earlier work in patent publication US5726184A, “Tetralin compounds with improved MDR activity” (Vertex Pharmaceuticals Incorporated, priority 1995, dated 1998).

The conditions of the data set: in patients, concentrations needed for sensitization; Hait et al.; Twentyman et al.; cited from earlier work.

In the case of “11-methyl-leucine cyclosporin [11-met-leu CsA]”, the immunosuppressive effect result was “do not exert an immunosuppressive effect”.
